Data on one substance can be found in patent US20210205260A1, “MP53 RESCUE COMPONDS AND METHODS OF TREATING A P53 DISORDER” (priority 2018, published 2021).

Common to all, as to type: cell-based, human
For assay [1], the system named is p53 targets MDM2, PIG3, PUMA, CDKN1A, BAX. Briefly: Real time qPCR of p53 downstream mRNA. To be noted: in about 24 hr. Background: Real-time PCR tracks product formation cycle by cycle.
Assay [2] concerns PUMA, BAX, PIG3, p21, MDM2. Briefly: Immunoblotting of p53 downstream proteins. To be noted: in about 48 hours. Background: A western blot detects proteins with antibodies after separation by electrophoresis.
For the next assay, the system named is NCI60 cell lines. Briefly: NCI60 cell panel growth inhibition (GI50) profile, DTP / CellMiner. To be noted: GI50 retrieved by CellMiner; p53 status from IARC TP53 database.

As for potassium arsenite, the “production of p53 downstream mRNA (MDM2, PIG3, PUMA, CDKN1A, BAX)” value in assay [1] is on record as “increase the production of p53 downstream mRNA”. Besides, in assay [2], the “production of downstream p53 protein (PUMA, BAX, PIG3, p21, MDM2)” value is reported as “increase production of downstream p53 protein”. Also, in the assay on NCI60 cell lines, the “selectivity of growth inhibition in the NCI60 panel by p53 status (in words)” value is listed as “selectively targets Structural mp53s”.
